From paper PMC8204096 (Clinical & Translational Immunology, 2021)

Chains of the proteins cited; added tags and fusions are not shown. Lines headed by an entry give the natural chain unless they say otherwise; changes in a name come on top.
UniProt Q06187: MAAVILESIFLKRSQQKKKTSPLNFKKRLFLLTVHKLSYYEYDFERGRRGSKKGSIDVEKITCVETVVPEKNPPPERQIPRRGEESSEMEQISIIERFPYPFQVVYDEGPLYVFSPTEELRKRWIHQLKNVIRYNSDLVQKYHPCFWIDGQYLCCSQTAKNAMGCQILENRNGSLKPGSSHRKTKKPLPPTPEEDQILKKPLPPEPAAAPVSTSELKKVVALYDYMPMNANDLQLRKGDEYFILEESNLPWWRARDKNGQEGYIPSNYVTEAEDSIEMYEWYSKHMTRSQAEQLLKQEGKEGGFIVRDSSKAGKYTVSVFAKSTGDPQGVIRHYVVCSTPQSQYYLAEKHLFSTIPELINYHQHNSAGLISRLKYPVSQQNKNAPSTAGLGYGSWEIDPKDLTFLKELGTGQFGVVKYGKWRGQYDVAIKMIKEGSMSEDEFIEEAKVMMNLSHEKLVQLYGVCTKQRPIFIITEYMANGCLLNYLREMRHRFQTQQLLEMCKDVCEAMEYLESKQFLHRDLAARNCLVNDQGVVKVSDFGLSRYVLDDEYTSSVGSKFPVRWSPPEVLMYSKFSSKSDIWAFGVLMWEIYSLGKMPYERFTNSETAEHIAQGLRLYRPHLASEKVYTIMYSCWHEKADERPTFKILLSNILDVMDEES

What was measured:
human neutrophils = test: FcγRIIA-induced human neutrophil reactive oxygen species generation; assay type: cell-based; details: read-out: IC50, immune complex-induced ROS production
[1] = biological target: recombinant human BTK protein (Homo sapiens, UniProt Q06187); test: biochemical
[2] = test system: B cells in human whole blood; test: Anti-IgD-induced B-cell activation; assay type: cell-based; details: whole blood CD69 IC50 versus whole blood pBTK IC50

- IC50 (human neutrophils): 4.5 ± 4.9 nM
- IC50 [1]: 0.45 nM
- shift between proximal (pBTK) and distal (CD69) whole blood IC50s [2]: 5 fold
SMILES: Cn1cc(Nc2nccc(-c3ccc4c(c3)CN(C3COC3)CC[C@H]4NC(=O)c3cn(C(C)(C)C)nn3)n2)cn1 [BIIB091]
